Patent publication US20230303564A1, “PYRIMIDINE RING COMPOUND” (MEDSHINE DISCOVERY INC., priority 2020, published 2023)

Amino acid sequences for entries named in this document (tags omitted).
UniProt Q00534, whole entry: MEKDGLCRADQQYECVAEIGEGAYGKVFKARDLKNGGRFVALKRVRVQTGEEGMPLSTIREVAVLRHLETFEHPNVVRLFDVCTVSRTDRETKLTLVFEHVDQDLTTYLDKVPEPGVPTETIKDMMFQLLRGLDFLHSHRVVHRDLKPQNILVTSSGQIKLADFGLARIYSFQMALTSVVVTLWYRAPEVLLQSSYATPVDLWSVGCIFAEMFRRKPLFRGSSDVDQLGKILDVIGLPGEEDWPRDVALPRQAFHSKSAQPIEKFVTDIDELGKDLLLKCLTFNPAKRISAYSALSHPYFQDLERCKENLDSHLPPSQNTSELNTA
UniProt P11802, whole entry: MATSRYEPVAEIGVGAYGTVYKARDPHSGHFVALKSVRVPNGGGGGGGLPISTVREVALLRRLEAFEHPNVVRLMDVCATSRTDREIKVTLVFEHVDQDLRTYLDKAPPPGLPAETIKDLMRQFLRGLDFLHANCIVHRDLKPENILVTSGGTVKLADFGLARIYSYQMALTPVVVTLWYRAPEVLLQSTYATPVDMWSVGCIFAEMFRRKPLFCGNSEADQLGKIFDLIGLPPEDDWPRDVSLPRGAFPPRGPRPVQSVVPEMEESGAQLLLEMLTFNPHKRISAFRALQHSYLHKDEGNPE
UniProt P06493, whole entry: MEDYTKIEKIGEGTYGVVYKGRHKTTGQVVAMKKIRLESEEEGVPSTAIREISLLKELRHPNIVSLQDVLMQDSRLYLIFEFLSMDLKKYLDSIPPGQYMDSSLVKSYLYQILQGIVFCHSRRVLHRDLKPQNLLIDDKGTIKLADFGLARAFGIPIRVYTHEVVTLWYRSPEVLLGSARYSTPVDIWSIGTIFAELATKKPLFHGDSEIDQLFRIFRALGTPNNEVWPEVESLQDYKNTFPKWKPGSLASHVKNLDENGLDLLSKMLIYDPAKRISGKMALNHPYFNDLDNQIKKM
UniProt P50613, whole entry: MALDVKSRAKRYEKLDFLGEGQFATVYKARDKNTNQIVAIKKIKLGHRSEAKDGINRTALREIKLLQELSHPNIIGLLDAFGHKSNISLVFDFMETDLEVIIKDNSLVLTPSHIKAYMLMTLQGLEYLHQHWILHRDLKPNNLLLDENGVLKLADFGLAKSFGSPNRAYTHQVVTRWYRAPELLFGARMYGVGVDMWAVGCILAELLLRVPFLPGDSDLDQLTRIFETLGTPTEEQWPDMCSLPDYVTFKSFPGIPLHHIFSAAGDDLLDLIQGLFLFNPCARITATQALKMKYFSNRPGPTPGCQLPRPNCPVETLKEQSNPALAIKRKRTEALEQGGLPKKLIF
UniProt P50750, whole entry: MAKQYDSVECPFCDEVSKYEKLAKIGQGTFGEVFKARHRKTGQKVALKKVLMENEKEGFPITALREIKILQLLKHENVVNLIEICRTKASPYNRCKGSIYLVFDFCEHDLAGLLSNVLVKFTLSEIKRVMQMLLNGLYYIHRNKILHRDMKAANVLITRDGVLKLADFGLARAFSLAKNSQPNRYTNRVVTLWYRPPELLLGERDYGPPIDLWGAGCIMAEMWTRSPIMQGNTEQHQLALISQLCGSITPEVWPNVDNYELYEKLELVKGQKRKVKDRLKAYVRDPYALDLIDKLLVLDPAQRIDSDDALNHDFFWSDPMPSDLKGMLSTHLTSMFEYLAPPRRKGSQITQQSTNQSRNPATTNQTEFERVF
UniProt P24385, whole entry partner: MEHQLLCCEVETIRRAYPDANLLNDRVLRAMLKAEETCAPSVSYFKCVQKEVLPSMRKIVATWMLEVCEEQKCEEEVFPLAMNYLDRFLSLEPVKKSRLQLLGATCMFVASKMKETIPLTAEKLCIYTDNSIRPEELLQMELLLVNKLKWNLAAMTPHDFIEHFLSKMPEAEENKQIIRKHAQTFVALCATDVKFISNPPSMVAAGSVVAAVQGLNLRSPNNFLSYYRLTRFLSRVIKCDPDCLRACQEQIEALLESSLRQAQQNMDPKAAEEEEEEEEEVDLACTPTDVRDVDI
UniProt O60563, whole entry partner: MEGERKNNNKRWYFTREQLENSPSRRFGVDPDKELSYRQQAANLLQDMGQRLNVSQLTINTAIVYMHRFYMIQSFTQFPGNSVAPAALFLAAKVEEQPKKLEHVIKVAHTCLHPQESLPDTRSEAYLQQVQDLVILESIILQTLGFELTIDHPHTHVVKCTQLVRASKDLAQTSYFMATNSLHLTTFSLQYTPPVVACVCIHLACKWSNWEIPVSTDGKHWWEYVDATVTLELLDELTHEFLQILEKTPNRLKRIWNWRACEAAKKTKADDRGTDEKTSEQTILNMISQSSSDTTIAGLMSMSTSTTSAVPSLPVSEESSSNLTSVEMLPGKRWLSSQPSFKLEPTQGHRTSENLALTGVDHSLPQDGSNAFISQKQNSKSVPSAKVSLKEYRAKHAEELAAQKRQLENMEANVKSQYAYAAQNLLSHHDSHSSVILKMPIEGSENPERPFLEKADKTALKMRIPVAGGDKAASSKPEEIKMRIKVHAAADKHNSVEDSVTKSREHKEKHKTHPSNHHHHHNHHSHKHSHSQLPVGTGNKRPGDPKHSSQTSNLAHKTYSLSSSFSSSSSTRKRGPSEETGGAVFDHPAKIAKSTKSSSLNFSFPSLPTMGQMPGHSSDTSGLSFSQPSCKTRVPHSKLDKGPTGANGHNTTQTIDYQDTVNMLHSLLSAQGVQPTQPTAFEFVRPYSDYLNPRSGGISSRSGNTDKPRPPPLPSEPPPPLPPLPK
UniProt P14635, whole entry partner: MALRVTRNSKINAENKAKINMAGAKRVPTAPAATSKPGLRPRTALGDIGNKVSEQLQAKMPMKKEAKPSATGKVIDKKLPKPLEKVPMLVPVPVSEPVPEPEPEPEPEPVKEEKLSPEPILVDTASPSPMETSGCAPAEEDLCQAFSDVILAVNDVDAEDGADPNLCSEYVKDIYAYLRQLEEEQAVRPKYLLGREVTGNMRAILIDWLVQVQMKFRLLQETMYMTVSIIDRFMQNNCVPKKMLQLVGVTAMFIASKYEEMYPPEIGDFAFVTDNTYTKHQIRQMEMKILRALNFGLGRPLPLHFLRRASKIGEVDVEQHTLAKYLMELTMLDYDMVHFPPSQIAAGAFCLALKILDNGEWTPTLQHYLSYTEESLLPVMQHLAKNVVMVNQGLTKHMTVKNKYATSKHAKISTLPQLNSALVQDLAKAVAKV
UniProt P51946, whole entry partner: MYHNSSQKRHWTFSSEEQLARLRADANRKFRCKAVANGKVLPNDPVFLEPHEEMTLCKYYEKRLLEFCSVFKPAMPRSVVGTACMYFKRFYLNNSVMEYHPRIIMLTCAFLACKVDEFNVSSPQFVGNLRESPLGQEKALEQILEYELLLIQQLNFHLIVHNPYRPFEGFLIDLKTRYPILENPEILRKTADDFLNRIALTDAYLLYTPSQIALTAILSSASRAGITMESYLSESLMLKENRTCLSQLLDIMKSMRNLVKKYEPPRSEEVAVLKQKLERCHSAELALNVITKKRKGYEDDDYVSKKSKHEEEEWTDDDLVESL
UniProt P51948, whole entry partner: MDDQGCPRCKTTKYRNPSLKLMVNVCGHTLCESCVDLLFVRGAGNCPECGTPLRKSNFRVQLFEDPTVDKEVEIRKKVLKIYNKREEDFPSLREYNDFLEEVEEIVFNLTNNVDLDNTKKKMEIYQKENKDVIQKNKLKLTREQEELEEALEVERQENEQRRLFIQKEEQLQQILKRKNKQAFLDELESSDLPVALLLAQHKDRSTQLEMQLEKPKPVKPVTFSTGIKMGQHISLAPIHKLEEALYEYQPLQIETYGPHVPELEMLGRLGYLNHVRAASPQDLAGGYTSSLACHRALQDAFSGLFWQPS

Legend:
CDK2/CyclinE1 = CDK2/CyclinE1 (Homo sapiens (Human), UniProt P24941); experiment: CDK2/CyclinE1 enzyme activity test (ADP-Glo); settings: read-out: CDK2/Cyclin E1 IC50, 150 μM ATP, 25° C. 60 minutes
CDK6/CyclinD1 = CDK6/CyclinD1 (Homo sapiens (Human), UniProt Q00534); experiment: CDK6/CyclinD1 enzyme activity test (LANCE Ultra TR-FRET); settings: read-out: CDK6/Cyclin D1 IC50, 250 μM ATP, 25° C. 120 minutes
CDK4/CyclinD1 = CDK4/CyclinD1 (Homo sapiens (Human), UniProt P11802); experiment: CDK4/CyclinD1 enzyme activity test (LANCE Ultra TR-FRET); settings: read-out: CDK4/Cyclin D1 IC50, 350 μM ATP, 25° C. 120 minutes
CDK1/CyclinB1 = CDK1/CyclinB1 (Homo sapiens (Human), UniProt P06493); experiment: CDK1/CyclinB1 enzyme activity test (ADP-Glo); settings: read-out: CDK1/Cyclin B IC50, 25 μM ATP, 25° C. 120 minutes
CDK2/CyclinA2 = CDK2/CyclinA2 (Homo sapiens (Human), UniProt P24941); experiment: CDK2/CyclinA2 enzyme activity test (ADP-Glo); settings: read-out: CDK2/Cyclin A2 IC50, 50 μM ATP, 25° C. 60 minutes
CDK7/CyclinH/MAT1 = CDK7/CyclinH/MAT1 (Homo sapiens (Human), UniProt P50613); experiment: CDK7/CyclinH/MAT1 enzyme activity test (ADP-Glo); type: biochemical; settings: read-out: CDK7/Cyclin H IC50, 10 μM ATP, 25° C. 120 minutes
CDK9/CyclinT1 = CDK9/CyclinT1 (Homo sapiens (Human), UniProt P50750); experiment: CDK9/CyclinT1 enzyme activity test (ADP-Glo); settings: read-out: CDK 9/Cyclin T1 IC50, 100 μM ATP, 25° C. 120 minutes

| IC50 (CDK1/CyclinB1) [nM] | IC50 (CDK2/CyclinA2) [nM] | IC50 (CDK7/CyclinH/MAT1) [nM] | IC50 (CDK9/CyclinT1) [nM] | SMILES | IC50 (CDK2/CyclinE1) [nM] | IC50 (CDK6/CyclinD1) [nM] | IC50 (CDK4/CyclinD1) [nM] |
| --- | --- | --- | --- | --- | --- | --- | --- |
|  |  |  |  | C[C@@H]1CN(S(C)(=O)=O)CC[C@@H]1Nc1ncc2cc(C(F)F)nc(NC3CCCC3(F)F)c2n1 (single isomer, unassigned) | 3.6 | 10.8 | 19.4 |
| 12.7 | 1.4 | 227 | 303 | CS(=O)(=O)N1CCC(Nc2ncc3ccnc(C4CCCC4O)c3n2)CC1 (stereo not shown) | 6.58 | 28.3 | 73.7 |
